Source: paper PMC6722387 (Cellular and Molecular Gastroenterology and Hepatology, 2019)

System: human iPS-IECMs
Test: FD-4 permeability test across human iPS-IECMs
Assay type: in vitro ADME
Conditions: 13 mM n-capric acid (C10) in apical chamber, 90 min

SMILES: CCCCCCCCCC(=O)O [C10, n-capric acid]
- FD-4 Papp change by C10 treatment: increased
